Data published in PubChem BioAssay AID878 (University of Pittsburgh Molecular Library Screening Center, 2007).
The list shows a part of the results, in another mix than the full data. Calls of active or inactive are those of the source.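 Rule for the calls: active = activation of at least 50% relative to the plate's high and low controls in the primary single-dose screen; inactive = activation below 50%.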

Assay: compounds producing H2O2 with reducing agent – biochemical, NIH compound library profiling, artefact control for MLSCN library redox annotation, primary screen (AID 878);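 note: compound incubated with DTT at 0.8 mM final as the reducing agent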
Details: DTT-dependent redox cycling H2O2, phenol red/HRP absorbance; at 10 µM; stronger effect = higher value; 100% = 100 µM peroxide control, 0% = buffer

Compound	activation
COc1ccc(C(=O)NCC2(N3CCCCC3)CCCCC2)c(OC)c1OC	inactive: -0.53%
O=C(NCC1(N2CCOCC2)CCCCC1)c1cc2ccccc2o1	inactive: -16%
CCOC(=O)N1CCC(Nc2ccc(OC)cc2)CC1	inactive: -1.7%
O=C(OC1CN2CCC1CC2)C1c2ccccc2Oc2ccccc21 (stereo not given)	inactive: -0.1%
COc1ccc(NC2CCN(CCc3ccccc3)CC2)c(OC)c1	inactive: -0.15%
O=C(NCC1(N2CCCCC2)CCCCC1)c1cccc([N+](=O)[O-])c1	inactive: -0.04%
N#CC1(Nc2ccccc2)CCN(CCc2ccccc2)CC1	inactive: -0.55%
CN1CCN(CCOC(=O)C(O)(c2ccccc2)c2ccccc2)CC1	inactive: -0.4%
COc1ccc(NC2CCN(C(=O)OC(C)(C)C)CC2)cc1	inactive: -1.34%
O=C(NCC1(N2CCOCC2)CCCCC1)c1cc(=O)[nH]c2ccccc12	inactive: 0.58%
COc1ccc(CN(CCCl)CCCl)cc1Cl	inactive: 0.28%
CN(C)c1cccc(C(=O)NCC2(N3CCCCC3)CCCCC2)c1	inactive: -1.98%
CC(C)c1ccc(NC2CCN(C(=O)OC(C)(C)C)CC2)cc1	inactive: -0.28%
CN1CCC(Nc2cccc(F)c2)CC1	inactive: 2.19%
COc1ccc(C(=O)NCC2(N3CCOCC3)CCCCC2)cc1OC	inactive: -0.08%
N/C(=N\O)c1c(N)no[n+]1[O-]	inactive: -0.94%
O=C(OC1CN2CCC1CC2)C1c2ccccc2C=Cc2ccccc21 (stereo not given)	inactive: -0.24%
N#Cc1ccc(C(=O)NCC2(N3CCCCC3)CCCCC2)cc1	inactive: -0.41%
c1ccc(CN2CCC(Nc3ccccc3)CC2)cc1	inactive: 2.6%
CCN1CCC(Nc2cccc(F)c2)CC1	inactive: 0.47%
CN(C)c1ccc(C(=O)NCC2(N3CCCCC3)CCCCC2)cc1	inactive: -0.22%
CCOc1ncccc1C(=O)NCC1(N2CCOCC2)CCCCC1	inactive: -0.62%
CC(C)(C)OC(=O)N1CCC(Nc2ccccc2)CC1	inactive: -0.13%
CCC(CO)(C(=O)OC1CN2CCC1CC2)c1ccccc1 (stereo not given)	inactive: 1.32%
COc1cc(OC)cc(C(=O)NCC2(N3CCOCC3)CCCCC2)c1	inactive: -1.24%
